Target: T1, voltage-gated calcium channel (ICa) of uterine myocytes (Rattus norvegicus, UniProt P22002)
T1 construct: Individual myocytes were freshly isolated from 14 to 21-day pregnant uteri; endogenous in cells; host or cells: freshly dissociated longitudinal myometrial myocytes of 14 to 21-day pregnant Sprague-Dawley rats
Test: whole-cell patch clamp, inward calcium current (ICa) of freshly dissociated pregnant rat uterine myocytes
Assay type: cell-based
Conditions: recovery 6 min after 1 mM lidocaine (FIG. 2C)
Description: Holding potential, -80 mV; depolarized by 35 ms steps from -40 mV in 10 mV increments to 30 mV. […] Traces shown represent inward currents in response to applied voltage commands, outward K^+ currents having been blocked by the use of Cs^+ -filled electrode. […] (E) Current-voltage (I--V) relations of INa in panels (A--D). Symbols correspond to those under current traces. (F) I--V relations of ICa.
Hollow symbols for I'Ca /ICa in same myocytes used for I'Na /INa values. […] P=I'Na /INa.
All experiments in this study were performed under institutional guidelines for the care and use of laboratory animals (approval #92-055). Rats (Sprague-Dawley) were mated individually in the inventors' laboratory, and the duration of gestation was timed from the morning of the first discovery of cervical plugs. […] Individual myocytes were freshly isolated from 14 to 21-day pregnant uteri. Details of the methods of isolating the myocytes in a near-physiological condition, and associated patch-clamping can be found in other publications^7,15. Briefly, strips of isolated longitudinal myometrium were incubated in collagenase, and then subjected to mild mechanical disruption, until individual myocytes in desired amounts were obtained. For the work described herein, such single freshly dissociated myocytes were studied in the whole-cell configuration of patch-clamping^9. […]

The chains behind the UniProt entries cited, without tags or fusion partners.
UniProt P22002, whole entry: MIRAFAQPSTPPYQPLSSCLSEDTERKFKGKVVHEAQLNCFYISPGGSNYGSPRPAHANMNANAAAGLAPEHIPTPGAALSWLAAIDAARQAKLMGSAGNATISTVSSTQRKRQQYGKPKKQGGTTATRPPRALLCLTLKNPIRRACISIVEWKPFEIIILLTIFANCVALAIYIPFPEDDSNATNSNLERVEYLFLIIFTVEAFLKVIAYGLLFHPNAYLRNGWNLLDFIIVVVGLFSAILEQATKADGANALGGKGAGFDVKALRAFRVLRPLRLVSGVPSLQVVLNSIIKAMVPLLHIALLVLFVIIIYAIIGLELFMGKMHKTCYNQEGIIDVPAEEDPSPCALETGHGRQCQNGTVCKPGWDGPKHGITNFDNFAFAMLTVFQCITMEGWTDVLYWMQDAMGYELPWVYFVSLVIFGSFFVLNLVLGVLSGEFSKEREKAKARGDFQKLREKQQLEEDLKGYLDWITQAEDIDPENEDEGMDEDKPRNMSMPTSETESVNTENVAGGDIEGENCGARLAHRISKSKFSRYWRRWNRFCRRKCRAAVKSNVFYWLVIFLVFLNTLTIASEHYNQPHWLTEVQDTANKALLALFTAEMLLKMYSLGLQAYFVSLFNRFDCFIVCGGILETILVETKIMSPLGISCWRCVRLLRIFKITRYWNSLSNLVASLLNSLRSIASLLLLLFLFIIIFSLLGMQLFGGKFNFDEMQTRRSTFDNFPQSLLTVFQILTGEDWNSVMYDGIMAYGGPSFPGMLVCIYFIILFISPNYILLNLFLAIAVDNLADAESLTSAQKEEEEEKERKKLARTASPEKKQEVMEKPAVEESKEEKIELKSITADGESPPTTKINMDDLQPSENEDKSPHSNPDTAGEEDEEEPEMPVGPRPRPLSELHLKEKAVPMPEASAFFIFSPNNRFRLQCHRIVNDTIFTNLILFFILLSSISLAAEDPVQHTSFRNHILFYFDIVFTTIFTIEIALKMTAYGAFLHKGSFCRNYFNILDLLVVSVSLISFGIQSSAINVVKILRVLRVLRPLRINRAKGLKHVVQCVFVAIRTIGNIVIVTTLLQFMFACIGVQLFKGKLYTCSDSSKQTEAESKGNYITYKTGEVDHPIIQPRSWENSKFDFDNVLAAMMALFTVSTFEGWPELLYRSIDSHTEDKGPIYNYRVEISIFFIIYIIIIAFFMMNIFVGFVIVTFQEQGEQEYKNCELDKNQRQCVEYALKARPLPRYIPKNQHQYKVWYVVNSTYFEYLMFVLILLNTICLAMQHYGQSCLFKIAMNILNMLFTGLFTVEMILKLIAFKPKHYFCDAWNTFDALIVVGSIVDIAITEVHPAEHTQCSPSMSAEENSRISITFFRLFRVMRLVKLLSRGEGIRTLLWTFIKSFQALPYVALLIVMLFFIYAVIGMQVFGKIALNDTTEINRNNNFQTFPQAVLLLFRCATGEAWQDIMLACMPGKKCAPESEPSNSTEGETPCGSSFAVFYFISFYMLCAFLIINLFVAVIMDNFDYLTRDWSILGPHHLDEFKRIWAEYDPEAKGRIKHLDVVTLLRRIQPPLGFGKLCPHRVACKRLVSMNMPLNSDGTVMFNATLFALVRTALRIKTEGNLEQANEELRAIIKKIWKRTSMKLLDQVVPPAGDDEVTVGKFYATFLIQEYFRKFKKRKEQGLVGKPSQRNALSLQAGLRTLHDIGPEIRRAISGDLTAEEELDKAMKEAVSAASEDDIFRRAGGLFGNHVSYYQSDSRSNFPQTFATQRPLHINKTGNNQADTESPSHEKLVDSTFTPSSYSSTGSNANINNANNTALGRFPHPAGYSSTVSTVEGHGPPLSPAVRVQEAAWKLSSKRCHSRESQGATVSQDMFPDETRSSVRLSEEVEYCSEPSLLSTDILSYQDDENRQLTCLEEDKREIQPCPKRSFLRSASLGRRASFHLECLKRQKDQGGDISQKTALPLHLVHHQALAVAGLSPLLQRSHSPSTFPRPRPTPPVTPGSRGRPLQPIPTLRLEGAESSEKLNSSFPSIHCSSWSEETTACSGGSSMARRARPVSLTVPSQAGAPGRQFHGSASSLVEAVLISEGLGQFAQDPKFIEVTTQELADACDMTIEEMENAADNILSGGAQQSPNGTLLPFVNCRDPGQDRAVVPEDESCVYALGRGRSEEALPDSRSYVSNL

In the case of CCN(CC)CC(=O)Nc1c(C)cccc1C [lidocaine], the “tail ICa after recovery from lidocaine relative to control” value is reported as 86%.

Source: patent publication US5504116A (Research Foundation of State University of New York, priority 1994, dated 1996)
